Molecular target: T1, human neutrophil elastase (human, UniProt P08246 30-247, limits assumed)
T1 sequence (looked up): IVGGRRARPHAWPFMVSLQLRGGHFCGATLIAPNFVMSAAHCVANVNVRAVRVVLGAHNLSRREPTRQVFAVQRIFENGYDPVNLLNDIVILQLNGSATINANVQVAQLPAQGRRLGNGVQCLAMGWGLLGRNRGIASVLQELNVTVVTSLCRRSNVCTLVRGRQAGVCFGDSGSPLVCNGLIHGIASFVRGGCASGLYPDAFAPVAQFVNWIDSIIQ
Assay: human neutrophil elastase inhibition assay, 40 nM each, chromogenic substrate; Ka calculated

B1: human growth hormone/alpha-1 antitrypsin monovariant fusion [T109: α1AT(P357N)/hGH] (other)
chain: EDPQGDAAQKTDTSHHDQDHPTFNKITPNLAEFAFSLYRQLAHQSNSTNIFFSPVSIATAFAMLSLGTKADTHDEILEGLNFNLTEIPEAQIHEGFQELLRTLNQPDSQLQLTTGNGLFLSEGLKLVDKFLEDVKKLYHSEAFTVNFGDTEEAKKQINDYVEKGTQGKIVDLVKELDRDTVFALVNYIFFKGKWERPFEVKDTEEEDFHVDQVTTVKVPMMKRLGMFNIQHCKKLSSWVLLMKYLGNATAIFFLPDEGKLQHLENELTHDIITKFLENEDRRSASLHLPKLSITGTYDLKSVLGQLGITKVFSNGADLSGVTEEAPLKLSKAVHKAVLTIDEKGTEAAGAMFLEAINMSIPPEVKFNKPFVFLMIDQNTKSPLFMGKVVNPTQKGGGGS[sequence of about 200 residues omitted]
modifications: new N-glycosylation site Asn-X-Ser at position 357 of alpha-1 antitrypsin
- Ka: ~1.4e+07 M⁻¹
